Here are results for one compound from paper PMC5048153, “Scaffold Hopping Toward Agomelatine: Novel 3, 4-Dihydroisoquinoline Compounds as Potential Antidepressant Agents” (Scientific Reports, 2016).

The chains behind the UniProt entries cited, without tags or fusion partners. Residues count along the entry.
UniProt P28335, 33-458: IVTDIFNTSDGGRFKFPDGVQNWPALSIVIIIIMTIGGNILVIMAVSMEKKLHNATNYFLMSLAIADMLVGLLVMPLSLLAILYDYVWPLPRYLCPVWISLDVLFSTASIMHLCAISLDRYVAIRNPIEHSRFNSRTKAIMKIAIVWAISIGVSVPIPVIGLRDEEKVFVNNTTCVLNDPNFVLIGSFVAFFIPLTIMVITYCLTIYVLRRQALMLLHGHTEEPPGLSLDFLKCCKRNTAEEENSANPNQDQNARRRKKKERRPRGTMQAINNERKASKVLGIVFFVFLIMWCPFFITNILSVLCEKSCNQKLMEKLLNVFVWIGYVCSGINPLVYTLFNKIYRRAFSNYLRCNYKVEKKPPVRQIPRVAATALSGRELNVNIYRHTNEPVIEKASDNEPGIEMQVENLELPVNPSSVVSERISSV

For this assay, the target named is 5-HT2C receptor (Homo sapiens, UniProt P28335). In words: FLIPR assay for 5-HT2C antagonism. In kind it is cell-based. To be noted: FLIPR calcium flux.

As to `COc1ccc2cccc(CCNC(C)=O)c2c1` [Agomelatine], the IC50 – broadly, the concentration at which inhibition is half-maximal – turned out to be 8.51 µM.
